Results as given in ChEMBL document CHEMBL5316282, “Small-Molecule Cyanamide Pan-TEAD·YAP1 Covalent Antagonists” (J Med Chem, 2023).

Chains of the proteins cited; added tags and fusions are not shown.
UniProt Q15561, whole entry: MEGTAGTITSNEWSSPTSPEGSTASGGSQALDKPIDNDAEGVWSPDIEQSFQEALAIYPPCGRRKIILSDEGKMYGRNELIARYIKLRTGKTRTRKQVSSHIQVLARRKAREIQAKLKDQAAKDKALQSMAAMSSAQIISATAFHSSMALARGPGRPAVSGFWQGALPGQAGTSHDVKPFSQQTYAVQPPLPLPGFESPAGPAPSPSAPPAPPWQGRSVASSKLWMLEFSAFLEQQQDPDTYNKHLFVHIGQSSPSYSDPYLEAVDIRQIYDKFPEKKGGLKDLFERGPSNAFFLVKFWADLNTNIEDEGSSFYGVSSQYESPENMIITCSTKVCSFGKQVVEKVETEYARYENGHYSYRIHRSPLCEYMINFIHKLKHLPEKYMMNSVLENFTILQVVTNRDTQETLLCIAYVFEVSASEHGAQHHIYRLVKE
UniProt Q15561, whole entry C367S: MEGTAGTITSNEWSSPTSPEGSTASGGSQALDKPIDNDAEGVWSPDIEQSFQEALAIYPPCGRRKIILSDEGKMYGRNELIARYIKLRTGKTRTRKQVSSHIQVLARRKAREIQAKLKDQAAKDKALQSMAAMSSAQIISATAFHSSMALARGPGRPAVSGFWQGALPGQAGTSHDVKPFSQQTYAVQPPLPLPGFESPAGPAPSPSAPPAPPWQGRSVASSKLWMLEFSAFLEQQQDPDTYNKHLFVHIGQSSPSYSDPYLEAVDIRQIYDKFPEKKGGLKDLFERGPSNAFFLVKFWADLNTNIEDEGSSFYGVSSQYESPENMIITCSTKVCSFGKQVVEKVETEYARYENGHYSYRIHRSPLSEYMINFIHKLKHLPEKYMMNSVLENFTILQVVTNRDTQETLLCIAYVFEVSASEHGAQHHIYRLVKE
UniProt Q99594, whole entry: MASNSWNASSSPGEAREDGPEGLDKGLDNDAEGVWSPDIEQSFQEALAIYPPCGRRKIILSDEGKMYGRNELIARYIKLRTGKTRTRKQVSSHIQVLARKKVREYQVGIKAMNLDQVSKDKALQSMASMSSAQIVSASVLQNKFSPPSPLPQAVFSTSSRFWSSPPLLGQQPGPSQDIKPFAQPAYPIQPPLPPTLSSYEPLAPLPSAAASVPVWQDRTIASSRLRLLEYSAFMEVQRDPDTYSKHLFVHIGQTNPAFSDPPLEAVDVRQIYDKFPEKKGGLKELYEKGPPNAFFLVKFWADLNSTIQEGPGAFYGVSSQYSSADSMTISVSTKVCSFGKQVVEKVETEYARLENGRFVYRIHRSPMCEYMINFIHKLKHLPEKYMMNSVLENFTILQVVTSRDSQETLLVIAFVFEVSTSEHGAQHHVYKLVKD
UniProt P28347, whole entry: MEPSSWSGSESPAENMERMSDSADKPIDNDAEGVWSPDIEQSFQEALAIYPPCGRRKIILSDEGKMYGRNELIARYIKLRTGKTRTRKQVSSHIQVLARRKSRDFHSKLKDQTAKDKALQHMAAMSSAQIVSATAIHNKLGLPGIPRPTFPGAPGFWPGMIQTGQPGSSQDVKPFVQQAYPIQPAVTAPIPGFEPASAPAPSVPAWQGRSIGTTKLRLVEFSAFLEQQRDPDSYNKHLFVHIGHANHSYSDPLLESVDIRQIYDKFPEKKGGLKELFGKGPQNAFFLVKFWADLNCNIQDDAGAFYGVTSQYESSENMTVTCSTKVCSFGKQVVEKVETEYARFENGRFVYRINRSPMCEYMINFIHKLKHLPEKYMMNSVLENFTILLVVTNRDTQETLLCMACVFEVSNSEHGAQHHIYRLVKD
UniProt Q15562, whole entry: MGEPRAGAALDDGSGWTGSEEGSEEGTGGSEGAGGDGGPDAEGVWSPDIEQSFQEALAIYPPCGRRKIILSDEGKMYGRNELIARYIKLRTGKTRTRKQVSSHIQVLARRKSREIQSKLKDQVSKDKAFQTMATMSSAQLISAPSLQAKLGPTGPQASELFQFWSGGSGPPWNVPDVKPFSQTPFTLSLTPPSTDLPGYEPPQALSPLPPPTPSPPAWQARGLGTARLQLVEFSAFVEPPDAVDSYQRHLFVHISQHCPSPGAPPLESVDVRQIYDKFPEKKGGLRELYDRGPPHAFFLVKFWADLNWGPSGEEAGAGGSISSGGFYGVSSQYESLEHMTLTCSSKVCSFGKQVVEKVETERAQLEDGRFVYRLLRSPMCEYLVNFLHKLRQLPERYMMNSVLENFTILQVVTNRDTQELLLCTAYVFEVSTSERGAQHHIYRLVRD

Columns and labels:
[1] = molecular target: T1, Transcriptional enhancer factor TEF-3 (Homo sapiens, UniProt Q15561); assay: Inhibition of TEAD4 (unknown origin) transfected in human HEK293 cells co-transfected with renilla plasmid assessed as maximum inhibition of transcriptional activity at 0.01 to 100 uM incubated for 24 hrs by dual Glo-luciferase reporter assay relative to control; type: cell-based; details: dose 0.01-100 µM
[2] = system: Transcriptional enhancer factor TEF-3 (Homo sapiens), Q15561 [C367S]; assay: Displacement of FAM- labeled YAP1 peptide (60 to 99 residues) from human TEAD4 (217 to 434 residues) C367S mutant expressed in Escherichia coli BL21 (DE3) cells at 0.2 to 100 uM incubated for 24 hrs by fluorescence polarization-based competitive binding assay; details: dose 0.2-100 µM
[3] = molecular target: Transcriptional enhancer factor TEF-5 (Homo sapiens, UniProt Q99594); details: dose 0.78-100 µM, time 24.0 hrs
[4] = molecular target: Transcriptional enhancer factor TEF-1 (Homo sapiens, UniProt P28347); details: dose 0.78-100 µM, time 24.0 hrs
[5] = molecular target: T1, Transcriptional enhancer factor TEF-3; details: dose 0.78-100 µM, time 24.0 hrs
[6] = molecular target: Transcriptional enhancer factor TEF-4 (Homo sapiens, UniProt Q15562); details: dose 0.78-100 µM, time 24.0 hrs

## N#CN1CC2CCCC(Nc3ccc(C(F)(F)F)cc3)C2C1 (centres undefined)
[1]
  Imax: inactive
[2]
  inhibition: inactive

## N#CN1Cc2ccc(F)c(Nc3cccc(C(F)(F)F)c3)c2C1
[3]
  T1/2: 1.9 min
[4]
  T1/2: 3.6 min

## N#CN1CC2CCCC(Nc3ccccc3C(F)(F)F)C2C1 (centres undefined)
[5]
  T1/2: 1050 min
[1]
  Imax: inactive
[6]
  T1/2: 92.4 min
[2]
  inhibition: inactive

## N#CN1CC2CCCC(Nc3cccc(C(F)(F)F)c3)C2C1 (centres undefined)
[3]
  T1/2: 365 min
[4]
  T1/2: 1160 min
[5]
  T1/2: 347 min
[6]
  T1/2: 117 min

## N#CN1Cc2cccc(Nc3cccc(C(F)(F)F)c3)c2C1
[3]
  T1/2: 4.8 min
[4]
  T1/2: 7.3 min
[5]
  T1/2: 3.9 min

## COc1ccc2c(c1Nc1cccc(C(F)(F)F)c1)CN(C#N)C2
[3]
  T1/2: 21.8 min
[4]
  T1/2: 990 min
[5]
  T1/2: 7.5 min
[6]
  T1/2: 3.3 min

## N#CN1Cc2cccc(Nc3ccc(C(F)(F)F)cc3)c2C1
[3]
  T1/2: 5.1 min
[4]
  T1/2: 4.9 min
[5]
  T1/2: 301 min
[1]
  Imax: 96.9%
[6]
  T1/2: 6.9 min
[2]
  inhibition: inactive

## N#CN1Cc2cccc(Nc3ccccc3C(F)(F)F)c2C1
[3]
  T1/2: 26.7 min
[4]
  T1/2: 73.7 min
[5]
  T1/2: 99 min
[6]
  T1/2: 4.8 min

Calls of active or inactive are those of the source. The rule behind the calls is not given here.
